Here are results for one compound from patent US12419870B2, “Compositions and methods for immune cell modulation in adoptive immunotherapies” (Fate Therapeutics, Inc., priority 2016, dated 2025).

SMILES strings stand for the structures.

For test [1], the system named is viable CD8+ population. Briefly: In vitro T cell culture compound screen, flow cytometry for cells co-expressing CCR7 and CD62L in CD8+ cells. Format: cell-based, human. The note with it: 10 μM, about 6 days. The text has this: (§1) In Vitro T Cell Culture. Fresh leukopaks (AllCells, Alameda, CA) were obtained from healthy donors, from which T cells were negatively selected using the EasySep Human T Cell Enrichment Kit (Stem Cell Technologies, Vancouver, Canada). The freshly isolated T cells were aliquoted and cryopreserved. On the day the screens were initiated, T cells were thawed and washed into X-Vivo 15 with 5% human AB serum, IL-2, pen/strep, and additional supplements. Cells were dispensed into flat-bottom 384-well plates at 5×10^5 cells/ml with anti-CD3/Anti-CD28 dynabeads (ThermoFisher, Waltham, MA) at a 3:1 bead-to-cell ratio. […]
(§2) Flow Cytometry. […] Data acquisition was performed on a BD Fortessa X-20 (BD Biosciences) and data were analyzed using Treestar software (FlowJo, Ashland, OR) and Spotfire (Tibco, Boston, MA).
(§3) These cells are characterized by expression of CCR7 and CD62L. Therefore, cells co-expressing both of these identifying markers were evaluated. Within the viable CD4+ population and viable CD8+ population, the percent of cells co-expressing CCR7 and CD62L was determined. […]
(§4) The number of events in each of these gates relative to the number of absolute counting beads in each sample was calculated, defining a relative measure of the absolute number of naïve, stem cell memory, or central memory T cells within the CD4+ and/or CD8+ populations. […]
In general terms: Flow cytometry measures light scatter and fluorescence of single cells or particles in a stream.

Test [2] has as its system Nalm-6-luc. Briefly: In vivo tumor clearance by compound-treated CAR-T cells in tumor-bearing NSG mice. How it is done:
CAR-T cells were generated from CD4+ and CD8+ T cells that were separately activated and expanded in vitro. The cells were transduced with the CAR-2 construct (FIG. 2) one day after activation and then replated into 24-well GREX plates with or without the compounds. Half the media was replaced every two days thereafter until harvest one week post-activation. One week after tumor injection, the NSG mice were treated with 0.2×10^6 CD4 and CD8 CAR-T cells mixed at a 1:1 ratio via retroorbital injection. The mice were imaged periodically to determine tumor burden.

Test [3] relates to viable CD4+ population. Briefly: In vitro T cell culture compound screen, flow cytometry for cells co-expressing CCR7 and CD62L in CD4+ cells. Conditions: 10 μM, about 6 days. Format: cell-based, human.
Excerpt: as §1, §2, §3, §4

As for `Oc1cccc(-c2nc(N3CCOCC3)c3oc4ncccc4c3n2)c1` [PI-103], the “number or ratio of cells co-expressing CCR7 and CD62L” value in test [1] and in test [3] was “increased” throughout. Besides, in test [2] (0.2×10^6 CD4 and CD8 CAR-T cells 1:1, retroorbital, one week after tumor injection), the “tumor clearance / tumor control by treated CAR-T cells” value is on record as “able to clear tumor from the majority of mice”. Moreover, the “mice that survived primary tumor challenge until the start of the rechallenge study” value in test [2] (60 days after the primary tumor injection) is “survived”.
